Columns and labels:
[1] = target: human cannabinoid CB1 receptor (Homo sapiens, UniProt P21554)
[2] = target: human cannabinoid CB2 receptor (Homo sapiens, UniProt P34972); conditions: CHO-CB2, data not shown

By UniProt entry, the sequences of proteins in these tests, tags left out.
UniProt P21554, whole entry: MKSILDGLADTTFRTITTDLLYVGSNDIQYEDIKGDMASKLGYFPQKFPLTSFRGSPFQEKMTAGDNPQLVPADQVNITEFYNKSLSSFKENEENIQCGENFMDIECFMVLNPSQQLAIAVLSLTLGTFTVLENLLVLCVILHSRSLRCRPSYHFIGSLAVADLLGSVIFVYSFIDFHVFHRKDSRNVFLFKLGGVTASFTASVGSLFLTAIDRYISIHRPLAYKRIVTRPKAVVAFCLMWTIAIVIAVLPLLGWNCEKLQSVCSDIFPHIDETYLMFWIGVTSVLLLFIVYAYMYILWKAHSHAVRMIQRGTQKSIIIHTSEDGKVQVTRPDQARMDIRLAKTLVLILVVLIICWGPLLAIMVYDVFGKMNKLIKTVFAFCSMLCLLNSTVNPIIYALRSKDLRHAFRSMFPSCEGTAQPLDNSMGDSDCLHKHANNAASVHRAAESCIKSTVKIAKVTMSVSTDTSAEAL
UniProt P34972, whole entry: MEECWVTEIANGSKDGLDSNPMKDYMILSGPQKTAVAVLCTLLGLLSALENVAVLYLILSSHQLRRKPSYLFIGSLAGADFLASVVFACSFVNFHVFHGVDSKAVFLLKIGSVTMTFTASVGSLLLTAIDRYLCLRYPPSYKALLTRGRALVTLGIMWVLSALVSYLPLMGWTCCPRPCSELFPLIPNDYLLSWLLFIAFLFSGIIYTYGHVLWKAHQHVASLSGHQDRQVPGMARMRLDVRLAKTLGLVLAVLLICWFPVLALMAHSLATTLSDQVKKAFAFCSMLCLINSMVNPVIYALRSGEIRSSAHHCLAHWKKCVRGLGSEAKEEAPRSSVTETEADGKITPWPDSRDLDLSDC

| SMILES | inhibition of internalization (CB1) [1] [%] | CB2 internalization induced by agonist [2] |
| --- | --- | --- |
| Cc1c(C(=O)NN2CCCCC2)nn(-c2ccc(Cl)cc2Cl)c1-c1ccc(I)cc1 [AM251] | 39.6 |  |
| Cc1c(C(=O)c2cccc3ccccc23)c2cccc3c2n1[C@H](CN1CCOCC1)CO3 [Win 55,212-2] |  | failed to induce CB2 internalization |

Reference: PMC3677530 (Analytical biochemistry, 2013)
